Molecular target: T1, GST-Cbl(TKB) (Homo sapiens, UniProt P22681)
T1 sequence (P22681 47-351 limits assumed): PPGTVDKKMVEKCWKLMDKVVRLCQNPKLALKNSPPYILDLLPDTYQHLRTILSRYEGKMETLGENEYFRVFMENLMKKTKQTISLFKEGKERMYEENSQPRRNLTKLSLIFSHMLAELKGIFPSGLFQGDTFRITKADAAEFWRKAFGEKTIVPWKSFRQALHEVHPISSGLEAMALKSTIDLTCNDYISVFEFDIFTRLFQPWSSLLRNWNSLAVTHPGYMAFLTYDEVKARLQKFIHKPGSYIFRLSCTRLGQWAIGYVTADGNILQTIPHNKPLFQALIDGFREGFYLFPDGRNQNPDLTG
Assay: Fluorescence polarization direct binding of labeled ZAP70 peptide to GST-Cbl

`CC(C)C[C@H](NC(=O)[C@@H](NC(=O)CCNC(=O)c1ccc2c(c1)C(=O)OC21c2ccc(O)cc2Oc2cc(O)ccc21)[C@@H](C)O)C(=O)N[C@@H](CC(N)=O)C(=O)N[C@@H](CO)C(=O)N[C@@H](CC(=O)O)C(=O)NCC(=O)N[C@@H](Cc1ccc(OP(=O)(O)O)cc1)C(=O)N[C@H](C(=O)N1CCC[C@H]1C(=O)N[C@@H](CCC(=O)O)C(=O)N1CCC[C@H]1C(=O)N[C@@H](C)C(N)=O)[C@@H](C)O` [ZAP70 peptide 1, Flu-βA-TLNSDGpYTPEPA-CONH2] showed a Kd of 1200 ± 200 nM.
